Measurements from US12162892B2, “CD16a binding agents and uses thereof” (KLEO PHARMACEUTICALS, INC., priority 2018, dated 2024).
Several values for one entry are separate records, joined by “and”; a condition that tells them apart may be missing. Equal values may be shown once.

Key:
Test in all cases: MATE ELISA, interaction with various receptors (Example 55)
Assay type in all cases: binding
Conditions in all cases: three replicate values
CD16a 158V = test system: CD16a 158V
Experimental: (§1) Coat ELISA plates (Costar 3922) using Neutravidin (Thermo 31000) at 5 μg/ml in PBS (100 μl/well) for 1 hour at 37° C. Plates were washed 4 times with PBST (PBS, 0.05% Tween 20-200 μl, 1 minute/wash) then blocked using 200 μl 5% bovine serum albumin (BSA, Heat Shock, Fraction V-American Bio AB01088-00100) in PBST for 2 hours at 25° C. with moderate shaking. BSA was removed and plates were washed. Biotinylated CD16a protein (158F-Acro Biosystems #CDA-H82E8, 158V-Acro Biosystems #CDA-H82E9) at 5 nM in PBSTB (PBST+0.1% BSA) was then added (100 μl/well) and incubated for 1 hour at 25° C. with gentle shaking. Protein was removed and plates were washed. MATE labeled antibodies diluted to 1 μg/ml in PBSTB (100 μl/well) were added and incubated for 1 hour at 25° C. with gentle shaking. Wash plates. HRP labeled Mouse Anti-Human IgG, F(ab′)2 (Jackson Immuno Research 209-035-097) diluted 1:2500 in PBSTB was added (100 μl/well) and incubated for 1 hour at 25° C. with gentle shaking. Wash plates. Substrate (Super Signal ELISA Pico Chemiluminescent Substrate-Thermo 37069) was added (100 μl/well) and plates were incubated for 5 minutes at 25° C. with gentle shaking. Luminescence was then measured on the Biotek Synergy H1 microplate reader.
(§2) Using similar methods as Examples 47 or 53, interactions with a number of receptors were measured. In some embodiments, “stock” is antibody only, and “control” is an antibody that went through the same procedure except using DMSO only as opposed to a compound. When contacted with targeting moieties such as antibodies in the Examples, compounds, e.g., I-95, I-96, etc. can react through their reactive groups
(§3) [drawing 887] with reactive groups of targeting moieties (e.g., —NH2) to form conjugates by forming amide groups (—C(O)NH—). […] In some embodiments, certain compounds selectively bind to CD16a over one or more other receptors.

CD32a-R167 = test system: CD32a-R167
Experimental: as §1, §2, §3

CD38 = CD38 (Homo sapiens, UniProt P28907)
Experimental: as §1, §2, §3

CD32b = target: T1, CD32b (Homo sapiens, UniProt P31994)
T1 sequence (P31994 43-310): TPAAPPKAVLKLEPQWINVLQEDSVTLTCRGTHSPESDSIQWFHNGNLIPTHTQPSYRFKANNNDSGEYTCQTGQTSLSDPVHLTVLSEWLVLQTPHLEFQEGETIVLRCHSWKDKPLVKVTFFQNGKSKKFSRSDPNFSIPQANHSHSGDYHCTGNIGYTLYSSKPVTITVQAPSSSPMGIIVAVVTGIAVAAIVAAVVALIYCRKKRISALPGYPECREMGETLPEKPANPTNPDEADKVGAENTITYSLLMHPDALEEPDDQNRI
Experimental: as §1, with “Biotinylated CD16a protein (158F-Acro Biosystems #CDA-H82E8, 158V-Acro Biosystems #CDA-H82E9) at 5 nM in PBSTB (PBST+0.1% BSA) was then added (100 μl/well) and incubated for 1 hour at 25° C. with gentle shaking.” left out
In some embodiments, “stock” is antibody only, and “control” is an antibody that went through the same procedure except using DMSO only as opposed to a compound. When contacted with targeting moieties such as antibodies in the Examples, compounds, e.g., I-95, I-96, etc. can react through their reactive groups […]

[1] = Table 12, Cetuximab with 30-, 10-, 3-fold I-95, listed as Control (Cetuximab)

For “Cetuximab Control: "'control' is an antibody that went through the same procedure except using DMSO only as opposed to a compound"”, which “MATE ELISA Results CD16a 158V” value (CD16a 158V; Table 11) is on record?
Its value is 503765 and 480337 and 469282.

And the “MATE ELISA Results CD16a-158V” value (CD16a 158V; [1])?
Its value is 610541 and 600643 and 584100.

And the “MATE ELISA Results CD32a R157” value (CD32a-R167; Table 11)?
Its value is 62533 and 60692 and 58018.

What about the “MATE ELISA Results CD32a-R167” value (CD32a-R167; [1]) of the same substance?
Its value is 87126 and 68955 and 66536.

And the “MATE ELISA Results CD38” value (CD38; Table 11)?
The value was 1022 and 422 and 368.

What about the “MATE ELISA Results CD38” value (CD38; [1]) of the same substance?
The value was 1167 and 522 and 342.

And the “MATE ELISA Results CD32b” value (CD32b; Table 11)?
The value was 4039 and 3862 and 3812.

And the “MATE ELISA Results CD32b” value (CD32b; [1])?
Its value is 2727 and 2683 and 2816.
